# Measured values from patent US8916159B2, “Selenocysteine mediated hybrid antibody molecules” (The United States of America, as represented by the …, priority 2007, dated 2014).
# By UniProt entry, the sequences of proteins in these tests, tags left out. Residues count along the entry.
# UniProt P55899, 24-297 limits assumed: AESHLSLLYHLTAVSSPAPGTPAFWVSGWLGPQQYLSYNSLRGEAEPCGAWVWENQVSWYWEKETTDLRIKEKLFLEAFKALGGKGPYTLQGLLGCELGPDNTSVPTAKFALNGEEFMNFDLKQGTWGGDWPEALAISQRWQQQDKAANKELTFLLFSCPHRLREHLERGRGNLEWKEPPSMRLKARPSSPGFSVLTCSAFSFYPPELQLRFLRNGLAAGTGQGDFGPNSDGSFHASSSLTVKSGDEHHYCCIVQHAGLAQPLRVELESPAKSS
# Molecular target: T1, soluble human FcRn (Homo sapiens, UniProt P55899)
# T1 construct: encoding the extracellular part of the human FcRn α-chain (nucleotides 70-1095); made in house; host or cells: HEK 293F (transient, PIGG vector), purified on immobilized Fc-stop
# Test: ELISA binding of Rituximab conjugates to soluble human FcRn
# Details: 8 μg/mL
# Experimental: Soluble human FcRn was engineered and expressed as described above. Briefly, both cDNA sequences of the heterodimeric human FcRn, α-chain and β2 microglobulin, were cloned into the bidirectional CMV promoter cassette of the PIGG vector. Transient transfection of the soluble human FcRn expression vector into HEK 293F cells, culturing of the cells, and concentration of the supernatant were carried out as described for Rituximab expression. The concentrated supernatant was subsequently brought into acidic PBS (pH 6.0). For purification, Fc-stop protein was immobilized to an NHS HiTrap column (GE Healthcare) using the manufacturer's protocol. After loading the concentrated supernatant in acidic PBS (pH 6.0), the column was washed with 30 mL acidic PBS (pH 6.0), and bound soluble human FcRn was eluted with neutral PBS (pH 7.4).
# To analyze and compare the binding of Rituximab and specifically conjugated Rituximab-Sec-His to commercially available soluble human FcγRI, FcγRIIA, and FcγRIIIA (all from R&D Systems) as well as to soluble human FcRn, 500 ng of each Fc receptor was coated and blocked on a 96-well plate as described above. […]
substance,measurement,setting,value
Rituximab-Sec-His/fluorescein: Rituximab-Sec-His conjugated at Sec to fluorescein-5-maleimide (FITC derivative with maleimide moiety),binding to immobilized human FcRn at pH 6.0,acidic PBS pH 6.0,detectable at pH 6.0
same,binding to immobilized human FcRn at pH 7.4,neutral PBS pH 7.4,not at pH 7.4
